The list shows a part of the results, in another mix than the full data. Records with an inconclusive call do not appear. Some salts or complexes appear as unconnected parts, following the source record. Activity calls are given as the source filed them. Calls follow the shape of the dose curve; as a rule, active = well fitted inhibition curve with a large enough effect; inconclusive = small, poorly fitted or top-dose-only effect; inactive = no such curve, though single readings can be large or run the other way.
Assay: Primary qHTS for Inhibitors of ATXN expression; also: nearly all actives have a fitted effect of over 55% in size
Settings: HEK-293 ATXN2-luciferase reporter, luminescence, 24 h; series mostly up to 57 µM; activity change, negative = inhibition: at the top concentration
% is scaled to controls: 0 for no effect and ±100 for the full control effect; potency is read from the fitted curve at half-maximal effect.

| SMILES | activity change, negative = inhibition | Potency |
| --- | --- | --- |
| CCC(c1nnnn1C1CCCC1)N1CCC(n2c(=O)[nH]c3ccccc32)CC1 (stereo unspecified) | inactive: -14.6% | – |
| COc1ccc(C(=O)NCC2(N3CCCCC3)CCCCC2)c(OC)c1OC | inactive: -9.55% | – |
| COc1ccc(C(=O)NCC2(N3CCCCC3)CCCCC2)cc1 | inactive: -3.37% | – |
| CCCCn1nnnc1C(c1cccs1)N1CCC(n2c(=O)[nH]c3ccccc32)CC1 (stereo unspecified) | inactive: -34.2% | – |
| CCCCn1nnnc1C(CC)N1CCC(n2c(=O)[nH]c3ccccc32)CC1 (stereo unspecified) | inactive: -6.77% | – |
| O=C(NCC1(N2CCCCC2)CCCCC1)c1cccs1 | inactive: -16.5% | – |
| O=C(NCC1(N2CCCCC2)CCCCC1)c1ccc(=O)[nH]c1 | inactive: 5.42% | – |
| CCOC(=O)N1CCC(=O)CC1 | inactive: -2.62% | – |
| Cc1cccc(NC2(C#N)CCN(Cc3ccccc3)CC2)c1 | inactive: 3.15% | – |
| CSc1ccccc1C(=O)NCC1(N2CCCCC2)CCCCC1 | inactive: -13.6% | – |
| Cc1cc(C)cc(N(C(=O)c2ccccc2)C2CCN(C(=O)OC(C)(C)C)CC2)c1 | inactive: -25.8% | – |
| O=c1[nH]c2ccccc2n1C1CCN(C(c2ccccc2OC(F)(F)F)c2nnnn2C2CCCCC2)CC1 (stereo unspecified) | inactive: -2.48% | – |
| O=C(NCC1(N2CCCCC2)CCCCC1)c1ccc(Cl)nc1 | inactive: 23.5% | – |
| O=C(NCC1(N2CCOCC2)CCCCC1)c1cc2ccccc2o1 | inactive: 3.82% | – |
| O=C1C(O)=C([N+](=O)[O-])C(=O)C(O)=C1[N+](=O)[O-] | inactive: -4.07% | – |
| COc1ccc(Cl)cc1C(=O)NCC1(N2CCOCC2)CCCCC1 | inactive: -13.6% | – |
| O=c1[nH]c2ccccc2n1C1CCN(C(c2cc3ccccc3o2)c2nnnn2C2CCCCC2)CC1 (stereo unspecified) | inactive: -1.2% | – |
| O=C(OC1CN2CCC1CC2)C1c2ccccc2Oc2ccccc21 (stereo unspecified) | inactive: 0.586% | – |
| O=C(NCC1(N2CCCCC2)CCCCC1)c1ccc(Cl)s1 | inactive: -5.12% | – |
| CCCCn1nnnc1C(c1ccc(OC)cc1)N1CCC(n2c(=O)[nH]c3ccccc32)CC1 (stereo unspecified) | inactive: -30.4% | – |
| O=C1CCN(Cc2ccccc2)CC1 | inactive: -5.9% | – |
| CC(C)(C)n1nnnc1C(c1ccccc1)N1CCC(n2c(=O)[nH]c3ccccc32)CC1 (stereo unspecified) | inactive: -13.7% | – |
| O=C(NCC1(N2CCOCC2)CCCCC1)c1ccc(Cl)cc1 | inactive: -6.15% | – |
| CCOc1ccc(C)cc1CN(CCCl)CCCl | inactive: -22.1% | – |

| SMILES | activity change, negative = inhibition | Potency |
| --- | --- | --- |
| COc1ccccc1C(=O)NCC1(N2CCOCC2)CCCCC1 | inactive: -5.8% | – |
| CCOC(=O)N1CCC(Nc2ccc(F)cc2)CC1 | inactive: 1.77% | – |
| COc1ccc(NC2CCN(CCc3ccccc3)CC2)c(OC)c1 | inactive: -4.68% | – |
| O=C(NCC1(N2CCCCC2)CCCCC1)c1ccc(F)cc1 | inactive: 6.21% | – |
| CCCCOc1ccc(C(=O)NCC2(N3CCOCC3)CCCCC2)cc1 | inactive: 4.94% | – |
| O=P1(N(CCCl)CCCl)SCCCS1 | inactive: 7.76% | – |
| CCOC(=O)C(=O)CBr | inactive: 15.8% | – |
| CCOC(=O)N1CCC(Nc2cccc(C)c2)CC1 | inactive: 3.39% | – |
| O=c1[nH]c2ccccc2n1C1CCN(C(c2cccc3ccccc23)c2nnnn2C2CCCC2)CC1 (stereo unspecified) | inactive: -24.2% | – |
| O=C(NCC1(N2CCCCC2)CCCCC1)c1ccc(OC(F)F)cc1 | inactive: -12.7% | – |
| N#CC1(Nc2ccccc2)CCN(CCc2ccccc2)CC1 | inactive: 5.57% | – |
| CCN1CCC(Nc2ccc(Cl)cc2)CC1 | inactive: 1.28% | – |
| CSc1ccc(C(=O)NCC2(N3CCOCC3)CCCCC2)cc1 | inactive: 7.84% | – |
| CCOc1ccc(C(=O)NCC2(N3CCOCC3)CCCCC2)cc1 | inactive: 7.86% | – |
| O=C(NCC1(N2CCCCC2)CCCCC1)c1cccc([N+](=O)[O-])c1 | inactive: -3.63% | – |
| O=C(NCC1(N2CCCCC2)CCCCC1)c1cccc(C(F)(F)F)c1 | inactive: -12.5% | – |
| O=C(NCC1(N2CCOCC2)CCCCC1)c1cc(=O)[nH]c2ccccc12 | inactive: 4.9% | – |
| COc1cc(C(=O)NCC2(N3CCCCC3)CCCCC2)ccc1OC(F)F | inactive: -10.7% | – |
| COc1ccc(NC2CCN(C(=O)OC(C)(C)C)CC2)cc1 | inactive: -28.3% | – |
| CC(C)c1ccc(C(=O)NCC2(N3CCOCC3)CCCCC2)cc1 | inactive: 23.8% | – |
| CN1CCN(CCOC(=O)C(O)(c2ccccc2)c2ccccc2)CC1 | inactive: -1.15% | – |
| CC(C)c1ccc(NC2CCN(C(=O)OC(C)(C)C)CC2)cc1 | inactive: 17.6% | – |
| CN(C)c1cccc(C(=O)NCC2(N3CCCCC3)CCCCC2)c1 | inactive: -3.39% | – |
| O=[N+]([O-])c1cc([N+](=O)[O-])c(OC2CCCCC2O)c([N+](=O)[O-])c1 (stereo unspecified) | inactive: -12.5% | – |

| SMILES | activity change, negative = inhibition | Potency |
| --- | --- | --- |
| COc1ccc(CN(CCCl)CCCl)cc1Cl | inactive: 4.02% | – |
| CCC(c1nnnn1C(C)(C)C)N1CCC(n2c(=O)[nH]c3ccccc32)CC1 (stereo unspecified) | inactive: -6.2% | – |
| COc1cc(OC)c(C(=O)NCC2(N(C)C)CCCCC2)cc1OC | inactive: 0.223% | – |
| O=C(OC1CN2CCC1CC2)c1ccc([N+](=O)[O-])cc1 (stereo unspecified) | inactive: 8.97% | – |
| O=C(NCC1(N2CCCCC2)CCCCC1)c1cncc(Br)c1 | inactive: -0.378% | – |
| COc1ccc2c(c1O)-c1c(O)c(OC)cc3c1[C@H](C2)[N+](C)(C)CC3.O=[N+]([O-])c1cc([N+](=O)[O-])c([O-])c([N+](=O)[O-])c1[O-] | inactive: -1.45% | – |
| CN1CCC(Nc2cccc(F)c2)CC1 | inactive: 1.2% | – |
| COc1ccc(C(c2nnnn2C2CCCC2)N2CCC(n3c(=O)[nH]c4ccccc43)CC2)cc1 (stereo unspecified) | inactive: -25.3% | – |
| CCCOc1ccc(C(=O)NCC2(N(C)C)CCCCC2)cc1OC | inactive: 1.48% | – |
| O=C(NCC1(N2CCOCC2)CCCCC1)c1ccccc1Br | inactive: 5.25% | – |
| CCCCn1nnnc1C(c1ccccc1)N1CCC(n2c(=O)[nH]c3ccccc32)CC1 (stereo unspecified) | inactive: 0% | – |
| O=C(NCC1(N2CCOCC2)CCCCC1)c1cc(Br)ccc1Cl | inactive: -13.5% | – |
| CCC(=O)N(c1ccccc1)C1CCNCC1 | inactive: 5.61% | – |
| O=c1[nH]c2ccccc2n1C1CCN(C(c2cccs2)c2nnnn2C2CCCCC2)CC1 (stereo unspecified) | – | active: 31.6 µM |
| O=c1[nH]c2ccccc2n1C1CCN(C(c2ccnc3ccccc23)c2nnnn2C2CCCC2)CC1 (stereo unspecified) | inactive: 0% | – |
| CCOC(=O)N1CCC(Nc2ccc(C)cc2)CC1 | inactive: 0.201% | – |
| N/C(=N\O)c1c(N)no[n+]1[O-] | inactive: 3.83% | – |
| O=C(OC1CN2CCC1CC2)C1c2ccccc2C=Cc2ccccc21 (stereo unspecified) | inactive: 4.79% | – |
| CCc1cc(C(=O)NCC2(N3CCCCC3)CCCCC2)sc1C | inactive: -19.3% | – |
| O=C(NCC1(N2CCOCC2)CCCCC1)c1ccccc1[N+](=O)[O-] | inactive: 1.57% | – |
| N#Cc1ccc(C(=O)NCC2(N3CCCCC3)CCCCC2)cc1 | inactive: -25.5% | – |
| O=C(NCC1(N2CCOCC2)CCCCC1)c1ccc([N+](=O)[O-])cc1 | inactive: -2.01% | – |
| CC(C)(C)OC(=O)N1CCC(N(C(=O)c2ccccc2)c2ccc(Cl)cc2)CC1 | inactive: -9.01% | – |

Reference: PubChem BioAssay AID1745845 (National Center for Advancing Translational Sciences (NCATS), 2022)
